Measured values as given in patent US20140165223A1, “TNF SUPERFAMILY TRIMERIZATION INHIBITORS” (B.S.R.C. "Alexander Fleming", priority 2011, published 2014).

Chains of the proteins cited; added tags and fusions are not shown. Residues count along the entry.
UniProt O14788, 143-317 limits assumed: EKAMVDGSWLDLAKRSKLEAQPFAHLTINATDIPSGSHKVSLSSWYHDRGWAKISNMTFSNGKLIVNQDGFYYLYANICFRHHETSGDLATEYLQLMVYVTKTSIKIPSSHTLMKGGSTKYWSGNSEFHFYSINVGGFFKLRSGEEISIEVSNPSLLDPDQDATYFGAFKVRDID
UniProt P01375, 77-233 limits assumed: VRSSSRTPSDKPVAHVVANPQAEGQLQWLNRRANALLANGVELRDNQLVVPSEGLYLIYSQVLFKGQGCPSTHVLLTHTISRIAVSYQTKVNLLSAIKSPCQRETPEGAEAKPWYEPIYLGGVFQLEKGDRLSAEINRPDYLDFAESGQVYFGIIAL
UniProt P01375, whole entry: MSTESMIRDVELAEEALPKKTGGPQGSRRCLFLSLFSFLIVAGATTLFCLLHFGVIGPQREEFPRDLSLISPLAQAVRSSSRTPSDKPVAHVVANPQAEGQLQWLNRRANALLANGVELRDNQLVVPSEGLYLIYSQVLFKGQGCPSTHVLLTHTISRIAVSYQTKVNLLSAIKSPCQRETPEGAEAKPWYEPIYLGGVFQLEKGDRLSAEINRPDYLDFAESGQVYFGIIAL

What was measured:
[1] = biological target: T1, human RANKL (Homo sapiens, UniProt O14788); test: RANKL-mediated osteoclastogenesis assay with human RANKL; format: cell-based; details: 5 μM (FIG. 14B)
[2] = test system: osteoclast precursors; test: MTT survival assay in osteoclast precursors; details: read-out: IC50 in MTT survival assay (cell toxicity), M-CSF, 1-20 μM, 2 days
[3] = biological target: T1, human RANKL; test: Human RANKL cross-linking (DSS) and Western blot; format: biochemical; details: molar ratios small molecule:trimeric human RANKL from 1:1 to 100:1
[4] = test system: L929 cells; test: Compound toxicity in L929 cells (TNF and actinomycin D omitted); format: cell-based; details: at least up to a concentration of 20 μM; without TNF
Protocol: FIG. 17. Inhibition of TNF-induced death in L929 cells. Increasing concentrations of the two compounds (Panel a, compound 1=T23; Panel b, compound 2=PRA224) were used to pre-incubate human TNF before addition to cells for 18 hours. Shown are mean values (n=3) relative to controls (TNF pre-incubated with DMSO). Data shown are representative of at least three experiments. In parallel experiments, the toxicity of the compounds was tested also in L929 cells using the same approach but omitting TNF and actinomycin D from the experimental set-up (Panel c, compound 1; Panel d, compound 2). Shown are mean values (n=3) relative to controls (DMSO-treated cells). Data shown are representative of at least three experiments.
Considering that the read-out of this assay is protection of death, it can also give an indication of the toxicity of the compounds; if they be more toxic than protective, no inhibition would be detected.

[5] = biological target: TNF/TNF-R1 interaction (Homo sapiens, UniProt P01375); test: TNF/TNF-R1 ELISA; details: data not shown
[6] = biological target: T2, TNF (Homo sapiens, UniProt P01375); test: TNF-induced MMP9 release in wild-type synovial fibroblasts (gelatin zymography); details: wild-type synovial fibroblasts stimulated by TNF, 18 hours
[7] = biological target: T2, TNF; test: MMP9 release in synovial fibroblasts from the human TNF-transgenic mouse (gelatin zymography); details: TNF over-expressing synovial fibroblasts, no stimulation

`COc1cc(OC(C)=O)c(-c2cc(OC(C)=O)c(OC)cc2OC(C)=O)cc1OC(C)=O` was tested, and the “inhibition of RANKL activity in osteoclastogenesis assays” value [1] was “inhibited human RANK activity”, the IC50 [2] was 8 µM and the “effect on RANKL trimerization (RANKL monomer levels)” value [3] was “induced an increase of RANKL inactive monomers at the ratios of 3:1 and 10:1”. The “toxicity of the compounds in L929 cells” value [4] was “minimally toxic”, the “inhibition of the TNF/TNF-R1 interaction” value [5] was “not found to inhibit” and the “release of MMP9” value [6] was “dose-dependent reduction”. For the same compound, the “release of MMP9” value [7] was “a reduction can also be observed”.
